Laboratory results from US20260001928A1 (CORTERIA PHARMACEUTICALS, priority 2022, published 2026).

Tested on: human LAD2 cells
Type: cell-based
Conditions: 30 min, β-hexosaminidase release, read-out: Mast Cell Degranulation (MCD) EC50
Description: LAD2 cells (20000 cells/well, 96-well plates and 10,000 cells/well in 384-well plates) were incubated with compounds for 30 min. The R-hexosaminidase released into the supernatants and in cell lysates was quantified using the fluorogenic substrate 4-methylumbelliferyl-N-acetyl-b-D-glucosaminide.
On the day of the assay, the lyophilized peptides were dissolved in DMSO and/or PBS 1× pH 7.4, to obtain stock solutions. The stock solutions were used to prepare working serial dilutions to have final concentrations in assay ranging from 50, 100 or 300 to 0.1 or 0.001 μM. Each peptide was tested in biological duplicates. When compounds were dissolved in DMSO, the final solvent concentration in assay was 0.5% (v/v).
The percentage of degranulation, expressed as % of R-hexosaminidase release, was calculated by dividing the fluorescence signal of the supernatant by the sum of the signals from the supernatant and cell pellet (lysed with Triton X-100, final 1%) and multiplying by 100.
Dose-response curves were generated by plotting the % of R-hexosaminidase release versus total release of cells treated with triton (y-axis) against the concentrations of peptides tested (x-axis). The Mast Cell Degranulation (MCD) EC50 values and standard errors were calculated using XLfit 5.5.0.5 based on the following equation:
4 Parameter Sigmoidal Model: f=(A+((B−A)/(1+((C/x)^D)))) […]

`CSCC[C@H](NC(=O)[C@H](CC(C)C)NC(=O)CNC(=O)[C@H](Cc1ccccc1)NC(=O)[C@H](Cc1ccccc1)NC(=O)[C@H](CCC(N)=O)NC(=O)[C@H](CCC(N)=O)NC(=O)[C@@H]1CCCN1C(=O)[C@H](CCCCN)NC(=O)[C@@H]1CCCN1C(=O)[C@@H](N)CCCNC(=N)N)C(N)=O` [Substance P, reference compound] gave an EC50 of 360 nM.
